From paper PMC10267539 (EJNMMI Radiopharmacy and Chemistry, 2023) come the findings set out here.

The subject of this series is PSMA-expressing LNCaP prostate tumor xenografts. The note with it: 1 h post-injection.

Consider `O=C(O)CC[C@H](NC(=O)N[C@@H](CCCCNC(=O)c1ccc([18F])nc1)C(=O)O)C(=O)O` [[^18F]DCFPyL], for which the kidneys uptake stood at 118 ± 12.6 %ID/g, the liver uptake was 1.83 ± 0.12 %ID/g, the salivary glands uptake was 1.27 ± 0.36 %ID/g and the spleen uptake came to 2.42 ± 1.11 %ID/g. Moreover, the tumor uptake stood at 10.3 ± 1.28 %ID/g, the tumor-to-blood uptake ratio amounted to 16.9 ± 2.93, the tumor-to-kidney uptake ratio is 0.09 ± 0.02 and the tumor-to-liver uptake ratio came to 5.69 ± 0.94. The tumor-to-muscle uptake ratio came out at 39.1 ± 13.1.
